Reference: PubChem BioAssay (NCI)
The entries are a selection whose mix differs from that of the whole data set.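 96-well plates, one dose, 48 hours. Percent growth reported; active if below 10.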 The source made the active and inactive calls.

What was measured:
Experiment in all cases: NCI-60 one-dose screen, 48 h (100 = growth as untreated, 0 = no growth, -100 = all killed)
Details in all cases: 10 µM
NCI-H23 lung = system: NCI-H23 lung
NCI-H226 lung = system: NCI-H226 lung
NCI-H322M lung = system: NCI-H322M lung
HOP-62 NSCLC = system: HOP-62 NSCLC
NCI-H460 lung = system: NCI-H460 lung
HOP-92 NSCLC = system: HOP-92 NSCLC
NCI-H522 lung = system: NCI-H522 lung
A549/ATCC NSCLC = system: A549/ATCC NSCLC
786-0 renal = system: 786-0 renal
COLO 205 colon = system: COLO 205 colon
DU-145 prostate = system: DU-145 prostate
K-562 leukemia = system: K-562 leukemia
MALME-3M melanoma = system: MALME-3M melanoma
MDA-MB-231 breast = system: MDA-MB-231 breast
RXF 393 renal = system: RXF 393 renal
SF-268 CNS = system: SF-268 CNS
SF-295 CNS = system: SF-295 CNS
SF-539 CNS = system: SF-539 CNS
UACC-257 melanoma = system: UACC-257 melanoma
M14 melanoma = system: M14 melanoma
HCT-15 colon = system: HCT-15 colon
HT29 colon = system: HT29 colon
SNB-75 CNS = system: SNB-75 CNS
SNB-19 CNS = system: SNB-19 CNS
U251 CNS = system: U251 CNS
PC-3 prostate = system: PC-3 prostate
SK-MEL-5 melanoma = system: SK-MEL-5 melanoma
UACC-62 melanoma = system: UACC-62 melanoma
LOX IMVI melanoma = system: LOX IMVI melanoma
SK-MEL-28 melanoma = system: SK-MEL-28 melanoma
SK-MEL-2 melanoma = system: SK-MEL-2 melanoma
EKVX NSCLC = system: EKVX NSCLC
SN12C renal = system: SN12C renal
UO-31 renal = system: UO-31 renal
TK-10 renal = system: TK-10 renal
ACHN renal = system: ACHN renal
CAKI-1 renal = system: CAKI-1 renal
A498 renal = system: A498 renal
HL-60(TB) leukemia = system: HL-60(TB) leukemia
CCRF-CEM leukemia = system: CCRF-CEM leukemia
MOLT-4 leukemia = system: MOLT-4 leukemia
RPMI-8226 leukemia = system: RPMI-8226 leukemia
OVCAR-8 ovarian = system: OVCAR-8 ovarian
OVCAR-5 ovarian = system: OVCAR-5 ovarian
OVCAR-4 ovarian = system: OVCAR-4 ovarian
SK-OV-3 ovarian = system: SK-OV-3 ovarian
IGROV1 ovarian = system: IGROV1 ovarian
OVCAR-3 ovarian = system: OVCAR-3 ovarian
HS 578T breast = system: HS 578T breast
NCI/ADR-RES ovarian = system: NCI/ADR-RES ovarian
T-47D breast = system: T-47D breast
BT-549 breast = system: BT-549 breast
MDA-MB-435 melanoma = system: MDA-MB-435 melanoma
SW-620 colon = system: SW-620 colon
MCF7 breast = system: MCF7 breast
HCT-116 colon = system: HCT-116 colon
HCC-2998 colon = system: HCC-2998 colon
KM12 colon = system: KM12 colon

Measured: growth

CN(CCCl)CCCl
inactive: NCI-H23 lung 18.9% | NCI-H226 lung 66.5% | NCI-H322M lung 90.7% | HOP-62 NSCLC 50.2% | A549/ATCC NSCLC 38% | COLO 205 colon 16.2% | DU-145 prostate 17.6% | K-562 leukemia 58.5% | MALME-3M melanoma 10.7% | MDA-MB-231 breast 85.7% | SF-268 CNS 31.7% | SF-295 CNS 49% | UACC-257 melanoma 57% | M14 melanoma 32% | HCT-15 colon 44.7% | HT29 colon 28.2% | SNB-75 CNS 67.5% | SNB-19 CNS 73.4% | U251 CNS 38.9% | PC-3 prostate 64% | SK-MEL-5 melanoma 68.2% | UACC-62 melanoma 43.6% | LOX IMVI melanoma 22.7% | SK-MEL-28 melanoma 77.8% | SK-MEL-2 melanoma 105% | EKVX NSCLC 105% | SN12C renal 20.9% | UO-31 renal 24.9% | TK-10 renal 35.3% | A498 renal 75.5% | CCRF-CEM leukemia 11% | RPMI-8226 leukemia 34% | OVCAR-8 ovarian 69.7% | OVCAR-5 ovarian 84.6% | OVCAR-4 ovarian 74% | SK-OV-3 ovarian 69.8% | IGROV1 ovarian 51.4% | HS 578T breast 102% | NCI/ADR-RES ovarian 59.1% | BT-549 breast 56% | MDA-MB-435 melanoma 75.3% | SW-620 colon 43.3% | MCF7 breast 33.9% | HCT-116 colon 33.8% | HCC-2998 colon 51.1% | KM12 colon 64.9%
active: NCI-H460 lung 3.06% | HOP-92 NSCLC -14% | NCI-H522 lung -85.2% | 786-0 renal 9.71% | RXF 393 renal 6.43% | SF-539 CNS 3.63% | ACHN renal -7.03% | CAKI-1 renal -21.8% | HL-60(TB) leukemia -17.5% | MOLT-4 leukemia -3.56% | OVCAR-3 ovarian 2.04% | T-47D breast 9.36%
